Results on one compound are retold here after patent US7432303B2, “Chalcone and its analogs as agents for the inhibition of angiogenesis and related disease states” (James and Emory University, priority 1999, dated 2008).

Some compounds may have been tested in ways that are not shown here.

The assay concerns SVR cells. The assay can be described thus: SVR cell assay: cell numbers counted at 48 hours, percent inhibition versus control.

In the case of `N#CC(C#N)=Cc1ccccc1`, the “Percent Inhibition at a Specified Density (μg/ml): 1” value (1 μg/ml, 10,000 SVR cells in 24 well dish) was 19.4%. The “Percent Inhibition at a Specified Density (μg/ml): 3” value (3 μg/ml, 10,000 SVR cells in 24 well dish) turned out to be 15.9%. Besides, under “6 μg/ml, 10,000 SVR cells in 24 well dish”, the “Percent Inhibition at a Specified Density (μg/ml): 6” value is recorded as 23.7%.
